According to PubChem BioAssay AID602329 (Broad Institute, 2012):
This is a selection; strong and weak results do not stand in their true shares. Some salts or complexes appear as unconnected parts, following the source record. The source made the active and inactive calls.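 The calls were made as follows: active = mean normalized replicate activity at least 40 and at least half of replicates scoring 40 or more; inconclusive = only one of the two criteria met; inactive = mean below 40 and under half of replicates reaching 40.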

Amino acid sequences for entries named in this document (tags omitted).
UniProt Q92698, whole entry: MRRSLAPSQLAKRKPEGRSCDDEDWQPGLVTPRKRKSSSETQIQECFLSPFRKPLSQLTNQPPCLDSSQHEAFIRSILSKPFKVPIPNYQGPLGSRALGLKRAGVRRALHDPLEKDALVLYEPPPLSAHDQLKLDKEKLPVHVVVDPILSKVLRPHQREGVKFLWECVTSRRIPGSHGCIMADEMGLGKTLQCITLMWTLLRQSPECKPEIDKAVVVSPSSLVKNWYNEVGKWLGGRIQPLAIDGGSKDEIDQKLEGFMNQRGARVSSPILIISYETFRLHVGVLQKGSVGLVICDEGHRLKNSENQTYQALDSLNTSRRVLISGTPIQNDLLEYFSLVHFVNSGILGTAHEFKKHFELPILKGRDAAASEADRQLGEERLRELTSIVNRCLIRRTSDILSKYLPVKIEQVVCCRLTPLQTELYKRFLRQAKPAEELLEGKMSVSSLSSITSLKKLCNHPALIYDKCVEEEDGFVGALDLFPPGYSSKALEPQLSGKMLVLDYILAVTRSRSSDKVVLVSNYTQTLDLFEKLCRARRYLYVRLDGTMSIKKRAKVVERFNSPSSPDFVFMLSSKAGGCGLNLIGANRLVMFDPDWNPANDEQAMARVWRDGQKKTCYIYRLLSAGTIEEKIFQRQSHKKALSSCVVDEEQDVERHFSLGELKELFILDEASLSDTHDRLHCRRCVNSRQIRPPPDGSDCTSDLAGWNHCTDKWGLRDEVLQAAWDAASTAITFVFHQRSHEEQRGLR

Each compound was assayed against DNA repair and recombination protein RAD54-like (Homo sapiens) (UniProt Q92698) (assay: RAD54 Holliday junction migration blockers – biochemical, fluorescence, single point, primary screen (AID 602329;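 also: 0% = median of neutral control wells and 100% = median of positive control wells; inhibitors cause a drop in the FAM fluorescence signal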)). Conditions: RAD54 Holliday junction branch migration, FAM/BHQ fluorescence; at 10.4 µM; active compounds read high.

SMILES | inhibition
CCOC(=O)c1ccc(NP(C)(=O)Oc2ccc(Cl)cc2)cc1 (stereo not given) | inactive: -23%
CP(=O)(OC12CC3CC(CC(C3)C1)C2)OC12CC3CC(CC(C3)C1)C2 | inactive: 1.14%
CC(C)(C)c1ccc(OP(C)(=O)O)cc1 | inactive: -16.6%
COc1ccccc1OP(C)(=O)Nc1ccccc1Br (stereo not given) | inactive: 6.38%
CP(=O)(Nc1ccc(Cl)cc1)Oc1ccc(F)cc1 (stereo not given) | inactive: -1.73%
CCN(CC)CC(O)COC(=O)C(O)(c1ccccc1)C1CCCCC1 (stereo not given) | inactive: -7%
COc1ccc(OP(C)(=O)Nc2ccc(Br)cc2)cc1 (stereo not given) | inactive: -10%
COc1ccccc1OP(C)(=O)Nc1c(C)n(C)n(-c2ccccc2)c1=O (stereo not given) | inactive: 5.5%
O=C(OCCCN1CCCC1)C(O)(c1ccccc1)C1CCCCC1 (stereo not given) | inactive: 8.7%
CP(=O)(Oc1ccccc1)N1CCOC1=O (stereo not given) | inactive: 1.18%
CCc1ccc(OP(C)(=O)Nc2cccnc2)cc1 (stereo not given) | inactive: 6.95%
O=[N+]([O-])c1cc([N+](=O)[O-])c(Nc2ccccn2)c([N+](=O)[O-])c1 | inactive: 2.78%
CP(=O)(Nc1ccccn1)Oc1ccccc1 (stereo not given) | inactive: -5.58%
COc1ccccc1OP(C)(=O)Nc1ccc(C)cc1C (stereo not given) | inactive: 8.13%
CCc1ccc(OP(C)(=O)O)cc1 | inactive: -6.63%
COc1ccc(OP(C)(=O)Nc2ccccn2)cc1 (stereo not given) | inactive: 3.01%
CN(C)CCOC(=O)C(O)(c1ccccc1)C1CCCC1 (stereo not given) | inactive: -6.31%
CP(=O)(Nc1ccc(Cl)cc1Cl)Oc1ccccc1 (stereo not given) | inactive: 4.65%
O=C1C(O)=C([N+](=O)[O-])C(=O)C(O)=C1[N+](=O)[O-] | inactive: 4.96%
COc1ccccc1OP(C)(=O)Nc1ccc(C)c(C)c1 (stereo not given) | inactive: 0.0295%
Cc1c([N+](=O)[O-])cc([N+](=O)[O-])c(Br)c1[N+](=O)[O-] | inactive: 8.01%
CCN(CC)CCCOC(=O)C(O)(c1ccccc1)C1CCCCC1 (stereo not given) | inactive: 0.157%
CP(=O)(Nc1ccccc1)Oc1ccc(F)cc1 (stereo not given) | inactive: -1.45%
CCCCCOc1ccc(NP(C)(=O)Oc2ccc(Cl)cc2Cl)cc1 (stereo not given) | inactive: -2.67%

SMILES | inhibition
O=[N+]([O-])c1cc([N+](=O)[O-])c(OC2CCCCC2O)c([N+](=O)[O-])c1 (stereo not given) | inactive: -23.5%
CCOC(=O)c1ccc(NP(C)(=O)Oc2ccc(F)cc2)cc1 (stereo not given) | inactive: 0.0715%
O=C(OCCN1CCN(CCOCc2ccccc2)CC1)C(O)(c1ccccc1)c1ccccc1 | inactive: 1.93%
COc1ccc2c(c1O)-c1c(O)c(OC)cc3c1[C@H](C2)[N+](C)(C)CC3.O=[N+]([O-])c1cc([N+](=O)[O-])c([O-])c([N+](=O)[O-])c1[O-] | inactive: -8.68%
O=[N+]([O-])c1cc([N+](=O)[O-])c(Nc2ccc(Cl)cc2)c([N+](=O)[O-])c1 | inactive: -3.25%
CP(=O)(Nc1ccccc1F)Oc1ccccc1 (stereo not given) | inactive: -13.4%
CP(=O)(Nc1ccc2c(c1)OCCO2)Oc1ccccc1 (stereo not given) | inactive: -27%
Cc1ccccc1NP(C)(=O)Nc1ccccc1C | inactive: -3.01%
CCOP(C)(=S)SCC(=O)NC(C)(CC)C(=O)O (stereo not given) | inactive: 5.9%
O=[N+]([O-])c1ccc(OP2(=O)COCCO2)cc1 (stereo not given) | inactive: 1.59%
Cc1cc(-c2cccc3ccccc23)c(C)cn1.O=[N+]([O-])c1cc([N+](=O)[O-])c(O)c([N+](=O)[O-])c1 | inactive: -5.87%
Cc1c(C(c2ccc3c(c2)OCO3)c2c(C)n(C)n(-c3ccccc3)c2=O)c(=O)n(-c2ccccc2)n1C.O=[N+]([O-])c1cc([N+](=O)[O-])c(O)c([N+](=O)[O-])c1 | inactive: -19.7%
COc1ccc(OP(C)(=O)Nc2cccc(Br)c2)cc1 (stereo not given) | inactive: -1.66%
CN(C)CCOC(=O)C(O)(c1ccccc1)C1CCCCC1 (stereo not given) | inactive: -13.7%
COc1ccc(NP(C)(=O)Oc2ccccc2OC)cc1 (stereo not given) | inactive: 2.79%
COc1ccccc1OP(C)(=O)Nc1c(C)cccc1C (stereo not given) | inactive: 5.04%
CCCOc1ccc(NP(C)(=O)Oc2ccc(Cl)cc2)cc1 (stereo not given) | inactive: -5.46%
O=[N+]([O-])c1cc([N+](=O)[O-])c(Nc2nnnn2CCO)c([N+](=O)[O-])c1 | inactive: 6.64%
CC1=C2N=C(C=C3N=C(C(C)=C4[N-][C@@](C)([C@@H]5N=C1[C@](C)(CCC(=O)NC[C@@H](C)OP(=O)([O-])O[C@H]1[C@@H](O)[C@@H](n6cnc7cc(C)c(C)cc76)O[C@@H]1CO)[C@H]5CC(N)=O)[C@@](C)(CC(N)=O)[C@@H]4CCC(N)=O)[C@@](C)(CC(N)=O)[C@@H]3CCC(N)=O)C(C)(C)[C@@H]2CCC(N)=O.[C-]#N.[Co+3] | inactive: 2.51%
CCOC(=O)C(CC)C1=NC(C)(C)Cc2ccccc21.O=[N+]([O-])c1cc([N+](=O)[O-])c(O)c([N+](=O)[O-])c1 (stereo not given) | inactive: -15.2%
O=[N+]([O-])c1cc([N+](=O)[O-])c(-c2cnn(-c3ccccc3)c2)c([N+](=O)[O-])c1 | inactive: 6.36%
Cc1nc2ccc3ccccc3c2s1.O=[N+]([O-])c1cc([N+](=O)[O-])c(O)c([N+](=O)[O-])c1 | inactive: -0.774%
O=[N+]([O-])c1cc([N+](=O)[O-])c(-n2nnc3ccccc32)c([N+](=O)[O-])c1 | inactive: -6.02%
CN(Cc1cccnc1)C(=O)COc1ccc(Cl)c(Cl)c1.O=[N+]([O-])c1cc([N+](=O)[O-])c(O)c([N+](=O)[O-])c1 | inactive: -1.56%

SMILES | inhibition
Cc1ccc(C)c(NP(C)(=O)Oc2ccccc2)c1 (stereo not given) | inactive: 2.34%
Cc1cc(C)cc(OP(C)(=O)Nc2ccccn2)c1 (stereo not given) | inactive: -3.21%
COc1ccccc1OP(C)(=O)Nc1cccc(Br)c1 (stereo not given) | inactive: -7.05%
Cc1cc(C)cc(OP(C)(=O)Nc2ccc(C)cc2C)c1 (stereo not given) | inactive: -3.1%
CC1=NCCc2c1[nH]c1ccccc21.O=[N+]([O-])c1cc([N+](=O)[O-])c(O)c([N+](=O)[O-])c1 | inactive: 3.14%
O=C(O)c1cccc(Nc2c([N+](=O)[O-])cc([N+](=O)[O-])cc2[N+](=O)[O-])c1 | inactive: 7.55%
COc1ccccc1OP(C)(=O)Nc1ccc(C)cc1 (stereo not given) | inactive: 5.27%
Cc1ccc(NP(C)(=O)Oc2ccccc2)c(C)c1 (stereo not given) | inactive: -4.06%
CCOC(=O)c1ccc(NP(C)(=O)Oc2ccccc2)cc1 (stereo not given) | inactive: -6.75%
Cc1cc(C)cc(OP(C)(N)=O)c1 (stereo not given) | inactive: -7.65%
COc1ccc(OP(C)(=O)Nc2cccc(F)c2)cc1 (stereo not given) | inactive: -9.82%
O=[N+]([O-])c1cc([N+](=O)[O-])c(Nc2cccnc2)c([N+](=O)[O-])c1 | inactive: 4.97%
O=[N+]([O-])c1cc([N+](=O)[O-])c(O)c([N+](=O)[O-])c1.c1ccc(Oc2ccncc2)cc1 | inactive: 7.4%
CCOC(=O)c1ccc(NP(C)(=O)Oc2ccc(OC)cc2)cc1 (stereo not given) | inactive: 1.67%
CCOP(C)(=S)SCC(=O)NC(C)C(=O)O (stereo not given) | inactive: -11.2%
CP(=O)(Nc1ccccn1)Oc1ccc(Cl)cc1 (stereo not given) | inactive: -3.88%
CP(=O)(Nc1ccc(SC(F)(F)F)cc1)Oc1ccc(Cl)cc1 (stereo not given) | inactive: -5.54%
Cc1ccc(Nc2c([N+](=O)[O-])cc([N+](=O)[O-])cc2[N+](=O)[O-])cc1 | inactive: -1.91%
Cc1cccc(C)c1OP(C)(=O)Nc1ccc(SC(F)(F)F)cc1 (stereo not given) | inactive: 0.163%
CP(=O)(Oc1ccccc1)OC(c1ccccc1)C(F)(F)F (stereo not given) | inactive: -3.56%
CCc1ccc(OP(C)(=O)N2CCN(c3ccc([N+](=O)[O-])cc3)CC2)cc1 (stereo not given) | inactive: 6.82%
CP(=S)(Nn1cnnc1)Oc1ccccc1 (stereo not given) | inactive: 0.232%
